Source: paper PMC8929578, “In vitro and in silico evaluation of Ononis isoflavonoids as molecules targeting the central nervous system” (PLoS ONE, 2022)
Values joined by “and” are separate entries in the source; they are usually repeats but may differ in a detail not shown here. Equal entries are not always repeated.

By UniProt entry, the sequences of proteins in these tests, tags left out. Residues count along the entry.
UniProt P21397, whole entry: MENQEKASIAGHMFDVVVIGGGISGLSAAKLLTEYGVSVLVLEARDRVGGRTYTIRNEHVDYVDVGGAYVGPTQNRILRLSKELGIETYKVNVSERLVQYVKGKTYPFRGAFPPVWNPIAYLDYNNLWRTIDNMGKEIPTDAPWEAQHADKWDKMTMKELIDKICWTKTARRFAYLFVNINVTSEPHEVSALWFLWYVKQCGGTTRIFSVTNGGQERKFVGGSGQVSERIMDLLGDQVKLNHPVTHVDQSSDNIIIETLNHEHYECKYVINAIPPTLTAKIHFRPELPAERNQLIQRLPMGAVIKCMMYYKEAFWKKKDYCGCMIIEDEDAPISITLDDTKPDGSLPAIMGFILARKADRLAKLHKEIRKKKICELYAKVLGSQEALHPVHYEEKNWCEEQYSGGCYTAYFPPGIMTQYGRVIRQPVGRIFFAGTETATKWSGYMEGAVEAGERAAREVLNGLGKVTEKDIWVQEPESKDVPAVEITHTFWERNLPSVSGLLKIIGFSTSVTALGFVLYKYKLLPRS
UniProt P27338, 2-520: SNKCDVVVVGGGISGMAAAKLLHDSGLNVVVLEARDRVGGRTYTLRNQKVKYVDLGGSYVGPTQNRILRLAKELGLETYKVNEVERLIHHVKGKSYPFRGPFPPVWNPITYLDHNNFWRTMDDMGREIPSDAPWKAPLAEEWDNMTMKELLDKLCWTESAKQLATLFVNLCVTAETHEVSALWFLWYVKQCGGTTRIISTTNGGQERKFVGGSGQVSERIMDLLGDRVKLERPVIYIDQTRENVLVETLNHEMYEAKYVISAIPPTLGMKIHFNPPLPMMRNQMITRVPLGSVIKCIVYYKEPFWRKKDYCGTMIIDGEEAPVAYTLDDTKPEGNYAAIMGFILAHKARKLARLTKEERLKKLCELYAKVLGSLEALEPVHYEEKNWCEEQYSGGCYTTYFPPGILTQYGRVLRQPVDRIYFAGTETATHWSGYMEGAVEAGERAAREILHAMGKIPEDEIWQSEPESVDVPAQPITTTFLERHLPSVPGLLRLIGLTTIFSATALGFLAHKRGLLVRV

Columns and labels:
[1] = biological target: T1, Monoamine oxidase A (Homo sapiens, UniProt P21397); conditions: human enzyme, ref ChEMBl database, cited from earlier work
[2] = biological target: T1, Monoamine oxidase A; conditions: log of IC50 in nM
[3] = biological target: T2, Monoamine oxidase B (Homo sapiens, UniProt P27338); conditions: read-out: IC50 values (MAO-B); cited from earlier work
[4] = tested on: MAO-B vs MAO-A; assay: Selectivity index of ChEMBl reference structures (MAO-A and MAO-B IC50); format: biochemical, human; conditions: for Selectivity: selectivity index calculated from ChEMBl IC50 values of MAO-A and MAO-B
[5] = biological target: T2, Monoamine oxidase B; conditions: log10 of the MAO-B IC50 in nM, sheet MAO B

Cn1ncc2cc(C(=O)Nc3ccc(F)c(Cl)c3)ccc21 [CHEMBL4061639]
pChEMBL Value, MAO A [1]: 9.18
IC50 ([1]; read-out: Standard Value (IC50), MAO A): 0.661 nM
log IC50, MAO A [2]: -0.18

COc1ccc(-c2cc(=O)c3c(O)cc(O)cc3o2)cc1 [CHEMBL243664, Acacetin]
IC50 [3]: 49 nM

CN1N=C(c2ccc(O)cc2O)CC1c1ccc(F)cc1 (stereo not shown) [CHEMBL2417749]
Selectivity [4]: 1.653

Cc1cc2c(nn1)-c1cc(OCCCC(F)(F)F)ccc1C2=O [CHEMBL348961]
log IC50 [5]: -1.854

Cc1cccc(C)c1NC(=S)N/N=C/c1ccc(-n2nc3c(c2C)N(C)S(=O)(=O)c2ccccc2-3)cc1 [CHEMBL4174892]
Selectivity index (IC50 A / IC50 B) ([4]; sheet Selectivity, ratio of MAO-A IC50 to MAO-B IC50): 0.001637

O=C1/C(=C/c2ccc(O)cc2)Oc2cc(O)ccc21 [CHEMBL426110]
Selectivity [4]: 0.1061 and 0.11

COc1cc2c3c(nccc3c1)-c1ccccc1C2=O [CHEMBL1651055]
log IC50, MAO A [2]: -0.08092

O=C(O)c1coc2ccccc2c1=O [CHEMBL315361]
log IC50 [5]: -1.319

O=c1c(O)c(-c2ccccc2)oc2cc(O)cc(O)c12 [CHEMBL309490, Galangin]
Selectivity [4]: 0.0356

CN(C)c1ccc(/C=C2\Oc3cc(O)ccc3C2=O)cc1 [CHEMBL1946828]
Selectivity [4]: 4.045

COc1ccc2c(c1)-c1nnc(-c3cccc(C(F)(F)F)c3)cc1C2=O [CHEMBL209413]
log IC50, MAO A [2]: -1

O=C(Nc1ccc(Cl)c(Cl)c1)c1ccc2[nH]ccc2c1 [CHEMBL3319268]
log IC50 [5]: -0.644

O=C1CC(O)Oc2ccc(OCc3cccc(Br)c3)cc21 (stereo not shown) [CHEMBL2062882]
Selectivity [4]: 268.421

NNCCc1ccccc1 [CHEMBL1089, PHENELZINE]
Selectivity index ([4]; MAO-A IC50 / MAO-B IC50 of ChEMBL reference structures): 1.664
